Measurements published in patent US8148089B2, “Alpha-synuclein kinase” (Elan Pharma International Limited, priority 2006, dated 2012).

The chains behind the UniProt entries cited, without tags or fusion partners. Where a name states a change or a piece, a line headed by the entry shows the natural chain unless it says otherwise.
UniProt Q9NYY3: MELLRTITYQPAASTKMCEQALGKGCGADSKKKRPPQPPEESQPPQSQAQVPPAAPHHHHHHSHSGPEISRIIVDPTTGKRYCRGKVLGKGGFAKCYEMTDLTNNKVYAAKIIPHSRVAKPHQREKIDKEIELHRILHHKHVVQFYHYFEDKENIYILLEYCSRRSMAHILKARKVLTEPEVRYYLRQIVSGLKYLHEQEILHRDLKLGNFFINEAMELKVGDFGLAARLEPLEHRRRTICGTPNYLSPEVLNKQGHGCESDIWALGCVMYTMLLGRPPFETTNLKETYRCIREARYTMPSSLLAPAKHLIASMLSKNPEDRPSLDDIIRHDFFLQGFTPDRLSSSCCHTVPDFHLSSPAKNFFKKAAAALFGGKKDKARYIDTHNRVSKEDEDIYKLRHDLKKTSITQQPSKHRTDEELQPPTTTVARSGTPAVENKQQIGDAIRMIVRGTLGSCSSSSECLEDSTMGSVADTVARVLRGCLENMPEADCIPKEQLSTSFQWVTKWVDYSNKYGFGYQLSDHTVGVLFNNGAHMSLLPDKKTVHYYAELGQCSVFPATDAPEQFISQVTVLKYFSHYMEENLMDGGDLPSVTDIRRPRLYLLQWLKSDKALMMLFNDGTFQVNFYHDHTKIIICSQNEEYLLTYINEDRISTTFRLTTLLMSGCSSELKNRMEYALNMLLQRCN
UniProt Q9H4B4: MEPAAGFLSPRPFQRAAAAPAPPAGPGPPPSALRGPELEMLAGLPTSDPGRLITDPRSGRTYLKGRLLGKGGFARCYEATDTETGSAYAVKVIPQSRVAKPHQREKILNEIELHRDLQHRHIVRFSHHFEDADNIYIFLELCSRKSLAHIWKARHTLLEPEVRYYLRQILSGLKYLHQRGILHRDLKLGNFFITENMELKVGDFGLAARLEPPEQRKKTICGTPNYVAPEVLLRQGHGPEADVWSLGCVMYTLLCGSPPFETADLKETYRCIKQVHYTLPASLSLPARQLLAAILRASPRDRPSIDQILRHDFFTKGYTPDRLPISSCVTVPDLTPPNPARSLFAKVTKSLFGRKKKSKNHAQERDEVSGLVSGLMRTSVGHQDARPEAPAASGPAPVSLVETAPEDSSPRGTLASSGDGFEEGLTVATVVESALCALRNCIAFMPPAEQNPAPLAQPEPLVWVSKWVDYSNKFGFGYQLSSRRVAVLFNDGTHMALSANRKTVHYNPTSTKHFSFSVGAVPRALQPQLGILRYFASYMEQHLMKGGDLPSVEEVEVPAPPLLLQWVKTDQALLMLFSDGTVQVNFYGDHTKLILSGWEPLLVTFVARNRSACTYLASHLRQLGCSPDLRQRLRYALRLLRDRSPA

Experiments:
PLK2 = PLK2 (Homo sapiens, UniProt Q9NYY3); test: Straight biochemical assay: PLK2-driven synuclein phosphorylation in vitro; settings: Table 19
[1] = biological target: T1, over-expressed PLK2 (293) (Homo sapiens, UniProt Q9NYY3); test: Synuclein phosphorylation in HEK-293 cells over-expressing synuclein and PLK2; format: cell-based
T1 construct: expressed in transfected cells; host or cells: HEK-293 naive cells, CMV-promoter expression vector, Lipofectamine 2000

[2] = biological target: T2, over-expressed PLK3 (293) (Homo sapiens, UniProt Q9H4B4); test: Synuclein phosphorylation in HEK-293 cells over-expressing synuclein and PLK3; format: cell-based; settings: Table 22
T2 construct: expressed in transfected cells; host or cells: HEK-293 naive cells, CMV-promoter expression vector

CC[C@@H]1C(=O)N(C)c2cnc(Nc3ccc(C(=O)NC4CCN(C)CC4)cc3OC)nc2N1C1CCCC1 [ELN-481574-2, 4-[[(7r)-8-cyclopentyl-7-ethyl-5,6,7,8-tetrahydro-5-methyl-6-oxo-2-pteridinyl]amino]-3-methoxy-n-(1-methyl-4-piperidinyl)-benzamide]
1: Rank order of potency, Straight Biochemical (PLK2) | Rank order of potency, Over-Expressed PLK2 (293) ([1]; Table 19) | Rank order of potency, Synuclein + PLK2 ([1]; Table 22) | Rank order of potency, Synuclein + PLK3 [2]
